# Curated experimental data: properties

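These are experimental values that the OPERA curators gathered from public databases to train and test their QSAR models. A listed value is a point estimate from one report or more. Method, purity and exact conditions of the single measurements are not given. The measured form (salt, isomer or mixture) is not always the one drawn. Unmarked limits or estimates from the upstream databases cannot be ruled out.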

The melting point is given in degrees Celsius.
The boiling point refers to atmospheric pressure (760 mmHg), by the definition of the set.
The octanol-water partition coefficient is given as log10; larger values mean a more lipophilic compound.
Water solubility is log10 of mol/L, nominally at 25 °C; higher is more soluble.
Vapor pressures (log10 mmHg) refer to near room temperature, 15 to 30 °C; higher is more volatile.
The unbound fraction in human plasma runs from 0 (all bound) to 1 (all free).
Clint is human hepatic intrinsic clearance in µL/min per million cells; 0 means that no clearance was seen.
A value with < or ≤ is an upper limit.

CN(C(=O)N(C)c1ccccc1)c1ccccc1 has log Kow 2.82 and log S -3.498 (log10 mol/L) and log VP -5.057 (log10 mmHg). The entry for Cc1cc(C(F)(C(F)(F)F)C(F)(F)F)ccc1NC(=O)c1ccccc1/C(O)=N/C(C)(C)CS(C)=O (stereo partly drawn) lists melting point 164 °C and log S -4.123 (log10 mol/L) and log VP -11.19 (log10 mmHg). Listed for CC1C/C=C/CCCCCCCCC(=O)C1 (stereo partly drawn): log S -4.684 (log10 mol/L) and log VP -2.171 (log10 mmHg). CC(C)(C)OC(=O)N1CCN(c2ccc(N)nc2)CC1 is reported with melting point 133 °C and log VP -6.975 (log10 mmHg).

The entry for C=CC(=O)OCC1CCCO1 (configuration not stated) lists melting point -31.3 °C and log Kow 0.81. For CCCCCCOCC(O)CO (configuration not stated) the data give melting point 5 °C and log Kow 1.81 and log VP -3.234 (log10 mmHg). The entry for C/C=C/c1ccc(OC)c(OC)c1 lists log S -2.778 (log10 mol/L) and log VP -2.426 (log10 mmHg). COCCCN is reported with log Kow -0.5 and log VP 1.068 (log10 mmHg).

COC(=O)C1(O)CC(CO)=NN1c1ncccc1Cl (configuration not stated) is reported with melting point 129 °C and log S -1.888 (log10 mol/L). Cc1cc(C2(c3cc(C)c(O)cc3C)OS(=O)(=O)c3ccccc32)c(C)cc1O has plasma fu 0.0261 and hepatic Clint 0 µL/min/10^6 cells. Listed for O=C1c2ccccc2C2=Nc3cccc4cccc(c34)N12: melting point 208 °C and log Kow 3.966 and log S -6.806 (log10 mol/L). CCN(CC)C1=C[C@@H]2Oc3cc(N(CC)CC)c(C)cc3C(c3ccccc3C(=O)OC)=C2C=C1C has melting point 205 °C and log VP -5.274 (log10 mmHg).

For Clc1cc(Cl)c(Cl)nc1Cl the data give log S -3.982 (log10 mol/L) and log VP -1.648 (log10 mmHg). For C=CCOCC(CC)(CO)CO the data give bp 271.9 °C and log Kow 1.4. Listed for C=C(CC)C(=O)c1ccc(OCC(=O)O)c(Cl)c1Cl: log Kow 3.3 and plasma fu 0.1. Listed for CCOc1ccccc1C(N)=NO: melting point 145.2 °C and log S -1.793 (log10 mol/L).

The entry for COC(C=CC(OC)OC)OC lists melting point -0.075 °C and log Kow 1 and log VP -0.523 (log10 mmHg). For Cc1ccc(S(=O)(=O)[O-])cc1.[Na+] the data give log Kow -3.18 and log VP -10 (log10 mmHg). Listed for CCOC1CC(C)CC(C)(C)C1 (configuration not stated): bp 184 °C and log Kow 3.91 and log S -4.134 (log10 mol/L) and log VP 0.219 (log10 mmHg). CCC1OC(C)=C(O)C1=O (configuration not stated) is reported with melting point -10 °C and log Kow 0.9.

The entry for CCOCCOC(=O)/C(C#N)=C1\C=C(NCCCOC)CCC1 lists melting point 92.65 °C and log Kow 1.7 and log S -2.855 (log10 mol/L) and log VP -7.878 (log10 mmHg). The entry for CC(c1ccccc1)c1cc(C(=O)[O-])c(O)c(C(C)c2ccccc2)c1.CC(c1ccccc1)c1cc(C(=O)[O-])c(O)c(C(C)c2ccccc2)c1.[Zn+2] (configuration not stated) lists melting point 80 °C and log Kow 2.86 and log S -3.924 (log10 mol/L). O=C(NCCN1CCOCC1)c1ccc(Cl)cc1 has log Kow 1.5 and log S -2.38 (log10 mol/L) and hepatic Clint < 3 µL/min/10^6 cells. The entry for COc1cc(-c2ccc(N=NC(C(C)=O)C(=O)Nc3ccccc3)c(OC)c2)ccc1N=NC(C(C)=O)C(=O)Nc1ccccc1 (configuration not stated) lists log Kow 0.8 and log S -8.617 (log10 mol/L).

OCC1CCC(CO)CC1 (configuration not stated) has log Kow 2.225 and log S 0.805 (log10 mol/L).

3 of these entries, quoted again:

The entry for CN(C(=O)N(C)c1ccccc1)c1ccccc1 lists log Kow 2.82 and log S -3.498 (log10 mol/L) and log VP -5.057 (log10 mmHg).
The entry for OCC1CCC(CO)CC1 (configuration not stated) lists log Kow 2.225 and log S 0.805 (log10 mol/L).
The entry for O=C1c2ccccc2C2=Nc3cccc4cccc(c34)N12 lists melting point 208 °C and log Kow 3.966 and log S -6.806 (log10 mol/L).

Source: data files of OPERA 2.9 (Mansouri et al.), github.com/kmansouri/OPERA.